Experimental data taken from ChEMBL document CHEMBL1148451, “Receptor flexibility in the in silico screening of reagents in the S1' pocket of human collagenase” (J Med Chem, 2004).

Target: T1, Interstitial collagenase (Homo sapiens, UniProt P03956)
T1 sequence (P03956 whole entry): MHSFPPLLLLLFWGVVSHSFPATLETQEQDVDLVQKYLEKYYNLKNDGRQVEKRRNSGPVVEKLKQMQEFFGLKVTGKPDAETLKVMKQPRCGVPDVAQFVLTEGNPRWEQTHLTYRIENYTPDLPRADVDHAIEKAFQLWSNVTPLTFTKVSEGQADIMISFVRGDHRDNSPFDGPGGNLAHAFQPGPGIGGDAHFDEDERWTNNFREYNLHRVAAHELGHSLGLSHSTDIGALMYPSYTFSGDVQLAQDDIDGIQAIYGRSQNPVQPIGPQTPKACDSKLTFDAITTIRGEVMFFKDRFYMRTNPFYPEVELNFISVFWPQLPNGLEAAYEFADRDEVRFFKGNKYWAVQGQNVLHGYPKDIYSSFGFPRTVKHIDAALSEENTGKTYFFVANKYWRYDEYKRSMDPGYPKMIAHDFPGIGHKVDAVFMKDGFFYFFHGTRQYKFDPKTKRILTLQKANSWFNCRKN
Test: Inhibition of human matrix metalloprotease-1

With `COc1ccc(S(=O)(=O)N(Cc2cccnc2)[C@@H](C(=O)NO)C(C)C)cc1` [CGS-27023A] the IC50 was 27 nM.
